The target in this data set is calf intestine alkaline phosphatase (Bos taurus, UniProt P19111). The settings on record: 37 °C.

Chains of the proteins cited; added tags and fusions are not shown. Residues count along the entry.
UniProt P19111, 20-533: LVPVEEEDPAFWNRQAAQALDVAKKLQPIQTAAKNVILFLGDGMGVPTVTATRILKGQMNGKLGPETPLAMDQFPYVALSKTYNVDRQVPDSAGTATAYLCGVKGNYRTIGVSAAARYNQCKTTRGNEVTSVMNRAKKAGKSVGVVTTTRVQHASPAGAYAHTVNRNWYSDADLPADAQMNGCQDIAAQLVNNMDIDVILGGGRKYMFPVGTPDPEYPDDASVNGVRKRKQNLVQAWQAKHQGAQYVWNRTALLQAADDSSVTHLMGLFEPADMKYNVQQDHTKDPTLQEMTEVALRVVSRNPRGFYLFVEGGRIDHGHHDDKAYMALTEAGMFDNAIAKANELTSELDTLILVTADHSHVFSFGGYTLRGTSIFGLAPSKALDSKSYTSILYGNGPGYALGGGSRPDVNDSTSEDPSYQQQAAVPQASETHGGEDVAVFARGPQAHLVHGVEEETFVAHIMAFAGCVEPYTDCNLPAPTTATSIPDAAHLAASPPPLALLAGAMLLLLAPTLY

For 2-MeS–ATP-α-B [1A], for the setting “12 min, 0.25 U alkaline phosphatase”, the “fraction remaining after incubation with alkaline phosphatase” value is reported as 40%. Also, the “amount remaining after incubation with alkaline phosphatase” value (100 min, HPLC-MS) is reported as “only traces”.

These data come from PMC4354951 (European journal of medicinal chemistry, 2008).
